The values below are quoted from earlier work in US20030013883A1, “Tropane analogs binding to monoamine transporters” (priority 2000, published 2003).

The chains behind the UniProt entries cited, without tags or fusion partners.
UniProt P31652, whole entry: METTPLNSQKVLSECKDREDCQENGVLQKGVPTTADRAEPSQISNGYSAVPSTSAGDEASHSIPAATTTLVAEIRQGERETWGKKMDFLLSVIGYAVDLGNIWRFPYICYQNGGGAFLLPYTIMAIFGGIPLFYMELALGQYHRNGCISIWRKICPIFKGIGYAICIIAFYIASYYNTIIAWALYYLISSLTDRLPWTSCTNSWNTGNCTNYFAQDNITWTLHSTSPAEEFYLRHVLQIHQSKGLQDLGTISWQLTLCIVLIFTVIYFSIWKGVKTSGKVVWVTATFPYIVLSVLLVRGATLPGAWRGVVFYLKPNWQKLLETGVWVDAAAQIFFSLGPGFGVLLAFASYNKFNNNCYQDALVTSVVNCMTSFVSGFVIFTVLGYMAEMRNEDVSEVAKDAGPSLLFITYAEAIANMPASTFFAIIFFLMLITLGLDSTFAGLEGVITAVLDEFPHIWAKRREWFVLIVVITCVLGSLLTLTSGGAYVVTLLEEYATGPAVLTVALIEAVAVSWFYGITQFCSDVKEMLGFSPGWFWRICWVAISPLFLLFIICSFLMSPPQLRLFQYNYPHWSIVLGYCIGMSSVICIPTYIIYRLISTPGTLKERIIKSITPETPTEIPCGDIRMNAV

This data set deals with serotonin transporter (SERT) (Rattus norvegicus, UniProt P31652). The conditions noted are these: read-out: Kd of radioligand at SERT; radioligand constant used in Cheng-Prusoff conversion; cited from earlier work.

[^3H]paroxetine: the dissociation constant Kd was 0.15 nM.

By Kd is commonly meant the constant that tells how readily two partners part at equilibrium.
